Experimental data published in patent US20140308244A1, “Combination Therapy for Treatment of Inflammatory Demyelinating Disease” (The Board of Trustees of the Leland Stanford Junior …, priority 2011, published 2014).

How the values were obtained:
[1] = system: EAE; assay: EAE relapse model: Rebif pro-treatment after immunization, Lisinopril at peak of disease; type: in vivo; conditions: over 50 days, Rebif 1 μg/mouse intraperitoneally every other day for 5 doses from 1 day after immunization (pro-treatment), Lisinopril or PBS daily, orally
[2] = system: EAE; assay: EAE relapse model: Rebif and/or Lisinopril treatment initiated at peak of disease; type: in vivo; conditions: Rebif daily 0.25 μg/mouse intraperitoneally, Lisinopril 1 mg/kg/day orally

B1: Rebif: commercially available interferon beta (IFN-β1a) product (EMD Serono) approved for the treatment of MS (protein, UniProt P01574 22-187, looked up)
Interferon beta: MSYNLLGFLQRSSNFQCQKLLWQLNGRLEYCLKDRMNFDIPEEIKQLQQFQKEDAALTIYEMLQNIFAIFRQDSSSTGWNETIVENLLANVYHQINHLKTVLEEKLEKEDFTRGKLMSSLHLKRYYGRILHYLKAKEYSHCAWTIVRVEILRNFYFINRLTGYLRN
- Average Relapse Rate [1]: 2.0
- Average Relapse Rate ([1]; listed as Rebif/PBS): 2.00
- Average Relapse Rate [2]: 1.0
- Average Relapse Rate ([2]; listed as PBS/Rebif): 1.00
